The text below walks through data of PMC10095301, “To Target or Not to Target Schistosoma mansoni Cyclic Nucleotide Phosphodiesterase 4A?” (International Journal of Molecular Sciences, 2023).

The test system of this series is Nc1ncnc2c1ncn2[C@@H]1O[C@@H]2COP(=O)(O)O[C@H]2[C@H]1O. Put plainly: purified protein, by the assay type. Particulars: other: Michaelis-Menten, n = 5; pH 7.5; 25.0 °C.

As to SmPDE4A_CD (Schistosoma mansoni), the Michaelis constant (Km) amounted to 2.70 ± 0.33 µM.
